Values quoted from earlier work as cited in patent publication US8680094B2, “1, 4-benzoxazine compounds and derivatives thereof as therapeutic drugs for the treatment of neurodegenerative conditions” (Board of Regents, The University of Texas System, priority 2008, dated 2014).

Protein sequences, listed by entry. Tags and fused reporters are not part of them.
UniProt P15056, whole entry: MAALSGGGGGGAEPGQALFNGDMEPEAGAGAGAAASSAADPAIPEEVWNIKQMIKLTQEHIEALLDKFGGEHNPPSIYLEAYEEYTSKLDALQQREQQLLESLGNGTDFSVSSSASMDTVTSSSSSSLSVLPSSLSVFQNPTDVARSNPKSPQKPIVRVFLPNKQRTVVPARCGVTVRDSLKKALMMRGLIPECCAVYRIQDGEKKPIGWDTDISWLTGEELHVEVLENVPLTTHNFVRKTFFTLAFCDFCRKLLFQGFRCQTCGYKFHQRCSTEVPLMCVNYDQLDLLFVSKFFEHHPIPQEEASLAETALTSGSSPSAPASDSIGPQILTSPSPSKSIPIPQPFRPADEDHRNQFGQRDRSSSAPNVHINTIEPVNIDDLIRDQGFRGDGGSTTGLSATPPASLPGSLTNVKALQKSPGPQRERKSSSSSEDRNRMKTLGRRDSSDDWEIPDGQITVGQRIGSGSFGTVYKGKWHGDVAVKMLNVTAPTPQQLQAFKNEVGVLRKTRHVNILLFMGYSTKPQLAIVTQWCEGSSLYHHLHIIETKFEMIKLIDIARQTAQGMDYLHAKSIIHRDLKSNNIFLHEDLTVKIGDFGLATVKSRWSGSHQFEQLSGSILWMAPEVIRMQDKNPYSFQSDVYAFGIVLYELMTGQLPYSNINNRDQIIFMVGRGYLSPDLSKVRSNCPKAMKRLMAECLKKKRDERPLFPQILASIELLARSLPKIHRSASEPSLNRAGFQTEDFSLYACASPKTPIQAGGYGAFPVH

Target: T1, B-Raf (Homo sapiens, UniProt P15056)
T1 construct: in some cases SignalChem; host or cells: Sf9 insect cells (baculovirus)
Conditions: stated for the reference compound, no value; cited from earlier work

O=C1Nc2ccc(I)cc2C1=Cc1cc(Br)c(O)c(Br)c1 [GW5074, 5-Iodo-3-[(3′,5′-dibromo-4′-hydroxyphenyl)methylene]-2-indolinone]
inhibition of B-Raf: inhibits B-Raf
